The source of these data is PubChem BioAssay AID652085 (The Scripps Research Institute Molecular Screening Center, 2013).

The subject of one data set is 120 minutes. As to the kind of experiment: PubChem AID 652085. The note with it: C57Bl6 mouse, 10 mg/kg IP, brain/plasma LC-MS/MS.
The test system of a further data set is 30 minutes. The experiment in a line: PubChem AID 652085. The note with it: C57Bl6 mouse, 10 mg/kg IP, brain/plasma LC-MS/MS.

On to `COC(=O)c1cc(Br)cnc1N1CCC(NC2CCCCC2)C(O)C1` (stereo unspecified), for which the brain to plasma ratio was 1.9 with 120 minutes (stronger effect = higher value) and 3.4 in the data set with 30 minutes (stronger effect = higher value). Moreover, the brain concentration stood at 130 nM in the data set with 120 minutes (mouse brain level) and 2680 nM in the data set with 30 minutes (mouse brain level). Moreover, the plasma concentration amounted to 70 nM in the data set with 120 minutes (mouse plasma level) and 790 nM in the data set with 30 minutes (mouse plasma level).
